In patent US7266458B2, “BioMAP analysis” (Bioseek, Inc., priority 2000, dated 2007):

Legend:
[1] = test system: human umbilical vein endothelial cells (HUVEC); test: HUVEC treated with proinflammatory cytokines, readout parameters by cell-based ELISA; conditions: for ICAM-1 level: TNF-α 5 ng/ml, IFN-γ 100 ng/ml, IL-1 1 ng/ml
Experimental: Primary human umbilical vein endothelial cells (HUVEC) are used. Other cells that may replace HUVEC in the screen include primary microvascular endothelial cells, aortic or arteriolar endothelial cells or endothelial cell lines such as EAhy926 or E6-E7 4-5-2G cells or human telomerase reverse transcriptase-expressing endothelial cells (Simmons, J. Immunol., 148:267, 1992; Rhim, Carcinogenesis 19:673, 1998; Yang, J. Biol. Chem. 274:26141, 1999). 2×10^4 cells/ml are cultured to confluence in EGM-2 (Clonetics). Other media that may replace EGM-2 include EGM (Clonetics) and Ham's F12K medium supplemented with 0.1 mg/ml heparin and 0.03-0.05 mg/ml endothelial cell growth supplement (ECGS) and 10% FBS, or medium M199 (Life Technologies, Inc.) containing 20% fetal bovine serum and 2 ng/ml basic fibroblast growth factor (Jaffe, J. Clin. Invest. 52:2745,1973; Hoshi, PNAS 81:6413,1984).
The data provided in FIGS. 1A-1C illustrate the usefulness of the present invention in compound screening applications. […] After 24 hours, cultures are washed and evaluated for the presence of the parameters ICAM-1 (1), VCAM-1 (2), E-selectin (3), IL-8 (4), CD31 (5), HLA-DR (6) and MIG (7) by cell-based ELISA as described (Melrose, J. Immunol. 161:2457, 1998). For this, plates are blocked with 1% Blotto for 1 hr, and treated with primary antibodies (obtained from Pharmingen and Becton Dickinson) at 1 ng/ml for 2 hr. After washing, secondary peroxidase-conjugated anti-mouse IgG antibody (Promega) at 1:2500 is applied for 45 min. After washing, TMB substrate (Kierkegaard & Perry) is added and color developed. Development is stopped by addition of H2SO4 and the absorbance at 450 nm (subtracting the background absorbance at 600 nm) is read with a Molecular Dynamics plate reader. The relative expression levels of each parameter are indicated by the OD at 450 nm shown along the y-axis. The mean +/−SD from triplicate samples is shown. The assay combinations are useful in screening compounds that modulate TNF-α, IL-1 and IFN-γ signaling pathways, however, compounds must be evaluated separately in all three assay combinations to identify compounds that selectively modulate one or more of these pathways. In addition, compounds that selectively modulate combinatorial effects of these pathways cannot be distinguished.
After 24 hours, cultures are washed and evaluated for the presence of the parameters ICAM-1 (1), VCAM-1 (2), E-selectin (3), IL-8 (4), CD31 (5), HLA-DR (6) and MIG (7) by cell-based ELISA performed as described above, and are reported as the OD at 450 nm. The mean +/−SD from triplicate samples are shown. * indicates p<0.05 comparing results obtained with the two separate conditions. HUVEC cultured with TNF-α for 24 hours express increased levels of cell surface ICAM-1, VCAM-1, and E-selectin as measured by cell-based ELISA. HUVEC cultured with IFN-γ for 24 hours express increased levels of ICAM-1, HLA-DR and MIG. HUVEC cultured in the presence of both TNF-α and IFN-γ for 24 hours produce a combined phenotype where HUVEC express increased levels of ICAM-1, VCAM-1, E-selectin, HLA-DR and MIG. This phenotype is more similar to the in vivo phenotype of endothelial cells in chronic inflammation and moreover reflects the stimulation of two different known pathways of interest in regulation of inflammatory processes. Concentrations of TNF-α and IFN-γ employed and length of exposure are standard according to the literature.
Inclusion of additional biologically active factors further improves the usefulness of the screens provided in the present invention. […] After 24 hours, cultures are washed and evaluated for the presence of the parameters ICAM-1 (1), VCAM-1 (2), E-selectin (3), IL-8 (4), CD31 (5), HLA-DR (6) and MIG (7) by cell-based ELISA performed as described above, and are reported as the OD at 450 nm. The mean +/−SD from triplicate samples are shown. * indicates p<0.05 comparing results obtained with the two separate conditions. […]

[2] = test system: human umbilical vein endothelial cells (HUVEC); test: Apoptosis assay panel (ceramide, TNF-α) with LDH release and cell-based ELISA; conditions: factor added to endothelial cell cultures, vs basal conditions
Experimental: Other standard vectors or tranfection protocols can be substituted. […] In this example, the test genes are human Bcl-2 and Bcl-xL. […] DEAE dextran (conc lopg/ml) is added to facilitate vector transduction.

[3] = HUVEC cultured with cytokine(s) 24 hours, vs basal medium
[4] = HUVEC cultured with cytokine(s) 24 hours, vs basal medium, listed as TNF-alpha

For “TNF-α: proinflammatory cytokine added to HUVEC”, the IL-8 level ([1]; HUVEC after cytokine activation) was “to a lesser extent”, the ICAM-1 level [1, 3] was “increased” and the ICAM-1 level [1, 4] was “mainly up-regulate”. The E-selectin level [1, 3] was “increased”, the VCAM-1 level [1, 3] was “increased” and the VCAM-1 level [1, 4] was “mainly up-regulate”. For the same substance, the “cell damage as release of cytoplasmic lactate dehydrogenase into the supernatant” value [2] was “enhanced”.
